The values below come from patent publication US20250248999A1 (published 2025).

Each structure is given as a SMILES string.

The conditions of the series: dogs; some mid- and high-dose animals.

On to `N#Cc1ccc(O[C@H]2CC[C@H](NC(=O)c3ccc(N4CCC(CN5CCN(c6cc7c(cc6F)C(=O)N(C6CCC(=O)NC6=O)C7=O)CC5)CC4)nn3)CC2)cc1Cl` (stereo partly shown) [Compound (I-g)], for which the liver function enzymes result is reported as “Reversible liver function enzyme elevation, which is considered non-adverse”.
